Literature values, collected in patent US20100124560A1, “MULTI PORTION INTRA-ORAL DOSAGE FORM AND USE THEREOF” (McNEIL AB, priority 2008, published 2010).

NC(=O)C[C@H](N)C(=O)O [Aspargine]
Solubility in water: 25.1 g/kg
